What was measured:
Mu-type opioid receptor [1] = biological target: T1, Mu-type opioid receptor (Homo sapiens, UniProt P35372); experiment: Displacement of [3H]DAMGO from human cloned mu-opioid receptor expressed in CHO cell membrane by liquid scintillation counting
[2] = biological target: T2, Delta-type opioid receptor (Homo sapiens, UniProt P41143); experiment: Displacement of [3H]DPDPE from human cloned delta-opioid receptor expressed in CHO cell membrane by liquid scintillation counting
[3] = biological target: T3, Kappa-type opioid receptor (Homo sapiens, UniProt P41145); experiment: Displacement of [3H]U69593 from human cloned kappa-opioid receptor expressed in CHO cell membrane by liquid scintillation counting
Mu-type opioid receptor [4] = biological target: T1, Mu-type opioid receptor; details: cho
Mu-type opioid receptor [5] = biological target: T1, Mu-type opioid receptor; experiment: Agonist activity at human mu opioid receptor expressed in CHO cell membrane assessed as stimulation of [35S]GTPgammaS binding incubated for 1 hr by liquid scintillation counting analysis
[6] = biological target: T2, Delta-type opioid receptor; experiment: Agonist activity at human delta opioid receptor expressed in CHO cell membrane assessed as stimulation of [35S]GTPgammaS binding incubated for 1 hr by liquid scintillation counting analysis
[7] = biological target: T3, Kappa-type opioid receptor; experiment: Agonist activity at human kappa opioid receptor expressed in CHO cell membrane assessed as stimulation of [35S]GTPgammaS binding incubated for 1 hr by liquid scintillation counting analysis

Amino acid sequences for entries named in this document (tags omitted).
UniProt P35372, whole entry: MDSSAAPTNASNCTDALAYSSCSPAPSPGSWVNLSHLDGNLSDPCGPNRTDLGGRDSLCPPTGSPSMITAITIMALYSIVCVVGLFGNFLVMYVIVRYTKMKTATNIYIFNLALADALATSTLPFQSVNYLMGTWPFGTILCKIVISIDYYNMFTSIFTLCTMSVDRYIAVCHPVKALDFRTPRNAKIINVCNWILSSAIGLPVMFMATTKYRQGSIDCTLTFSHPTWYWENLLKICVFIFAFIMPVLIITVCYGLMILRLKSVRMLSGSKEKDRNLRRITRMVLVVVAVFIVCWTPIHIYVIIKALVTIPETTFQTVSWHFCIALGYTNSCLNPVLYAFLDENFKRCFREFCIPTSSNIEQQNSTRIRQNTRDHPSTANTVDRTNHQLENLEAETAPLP
UniProt P41143, whole entry: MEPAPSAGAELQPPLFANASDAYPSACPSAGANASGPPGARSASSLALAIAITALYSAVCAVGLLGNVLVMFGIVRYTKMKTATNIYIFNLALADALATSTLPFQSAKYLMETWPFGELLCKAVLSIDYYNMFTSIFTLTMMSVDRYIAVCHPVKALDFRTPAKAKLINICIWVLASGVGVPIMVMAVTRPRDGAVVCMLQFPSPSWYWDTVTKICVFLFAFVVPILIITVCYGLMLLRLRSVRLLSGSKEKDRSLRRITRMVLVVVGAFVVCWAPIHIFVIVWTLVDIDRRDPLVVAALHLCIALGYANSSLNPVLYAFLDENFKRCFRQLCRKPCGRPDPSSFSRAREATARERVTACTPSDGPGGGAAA
UniProt P41145, whole entry: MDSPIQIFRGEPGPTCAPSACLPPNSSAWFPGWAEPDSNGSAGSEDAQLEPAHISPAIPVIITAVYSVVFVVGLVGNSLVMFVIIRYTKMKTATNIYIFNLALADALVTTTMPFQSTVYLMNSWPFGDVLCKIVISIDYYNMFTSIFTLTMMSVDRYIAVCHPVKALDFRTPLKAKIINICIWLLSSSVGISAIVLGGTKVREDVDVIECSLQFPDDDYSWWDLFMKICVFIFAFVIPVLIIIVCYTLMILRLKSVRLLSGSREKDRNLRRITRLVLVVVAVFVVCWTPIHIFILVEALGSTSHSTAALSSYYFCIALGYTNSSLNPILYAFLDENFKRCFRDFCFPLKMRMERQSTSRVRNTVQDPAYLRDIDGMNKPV

In the case of `COc1ccc2c3c1O[C@H]1[C@@]4(OC)C=C[C@@]5(C[C@@H]4C(=O)c4ccc(NC(=O)c6ccccc6)cc4)[C@@H](C2)N(CC2CC2)CC[C@]315`, the Ki (Mu-type opioid receptor [1]) is reported as 32.6 nM, the Ki [2] is reported as 678 nM and the Ki [3] is reported as over 10000 nM. It also gave an EC50 (Mu-type opioid receptor [4]) of 9 nM.

For `COc1ccc2c3c1O[C@H]1[C@@]4(OC)C=C[C@@]5(C[C@@H]4C(=O)c4ccc(N)cc4)[C@@H](C2)N(CC2CC2)CC[C@]315`, the Ki (Mu-type opioid receptor [1]) was 40.4 nM, the Ki [2] was over 5000 nM and the Ki [3] was 14.6 nM. For the same molecule, the EC50 (Mu-type opioid receptor [5]) was 29.7 nM, the EC50 [6] was 1570 nM and the EC50 [7] was 28.7 nM.
